In the Kinase Knowledgebase extract (Sharma et al. 2016):

Assays:
CDK2 (human) [1] = target: CDK2 (human) (UniProt P24941); experiment: Enzyme Assay
CDK2 (human) [2] = target: CDK2 (human) (UniProt P24941); experiment: Enzyme Assay; remark: listed apart in the source

IC50 (CDK2 (human) [1]): 0.13 µM
IC50 (CDK2 (human) [2]): 0.37 µM
SMILES: CC[C@@H](Nc1nc(NCc2cccnc2)c2ncn(C(C)C)c2n1)C(C)(C)O
